Legend:
AtABCC1 = AtABCC1 (Arabidopsis thaliana, UniProt Q9C8G9); experiment: PC2 transport into microsomal vesicles of SM7 yeast expressing AtABCC1; format: biochemical, A. thaliana; conditions: vanadate 1 mM, NH4Cl 5 mM, PC 25 μM
AtABCC2 = AtABCC2 (Arabidopsis thaliana, UniProt Q42093); experiment: PC2 transport into microsomal vesicles of SM7 yeast expressing AtABCC2; format: biochemical, A. thaliana; conditions: vanadate 1 mM, NH4Cl 5 mM, PC 25 μM
[1] = tested on: atabcc1 atabcc2 double knock-out A. thaliana; conditions: ½ MS agar plate, 16 days; low content of As(V) or Cd, or DSMA

Protein sequences, listed by entry. Tags and fused reporters are not part of them. Lines headed by an entry give the natural chain unless they say otherwise; changes in a name come on top.
UniProt Q9C8G9: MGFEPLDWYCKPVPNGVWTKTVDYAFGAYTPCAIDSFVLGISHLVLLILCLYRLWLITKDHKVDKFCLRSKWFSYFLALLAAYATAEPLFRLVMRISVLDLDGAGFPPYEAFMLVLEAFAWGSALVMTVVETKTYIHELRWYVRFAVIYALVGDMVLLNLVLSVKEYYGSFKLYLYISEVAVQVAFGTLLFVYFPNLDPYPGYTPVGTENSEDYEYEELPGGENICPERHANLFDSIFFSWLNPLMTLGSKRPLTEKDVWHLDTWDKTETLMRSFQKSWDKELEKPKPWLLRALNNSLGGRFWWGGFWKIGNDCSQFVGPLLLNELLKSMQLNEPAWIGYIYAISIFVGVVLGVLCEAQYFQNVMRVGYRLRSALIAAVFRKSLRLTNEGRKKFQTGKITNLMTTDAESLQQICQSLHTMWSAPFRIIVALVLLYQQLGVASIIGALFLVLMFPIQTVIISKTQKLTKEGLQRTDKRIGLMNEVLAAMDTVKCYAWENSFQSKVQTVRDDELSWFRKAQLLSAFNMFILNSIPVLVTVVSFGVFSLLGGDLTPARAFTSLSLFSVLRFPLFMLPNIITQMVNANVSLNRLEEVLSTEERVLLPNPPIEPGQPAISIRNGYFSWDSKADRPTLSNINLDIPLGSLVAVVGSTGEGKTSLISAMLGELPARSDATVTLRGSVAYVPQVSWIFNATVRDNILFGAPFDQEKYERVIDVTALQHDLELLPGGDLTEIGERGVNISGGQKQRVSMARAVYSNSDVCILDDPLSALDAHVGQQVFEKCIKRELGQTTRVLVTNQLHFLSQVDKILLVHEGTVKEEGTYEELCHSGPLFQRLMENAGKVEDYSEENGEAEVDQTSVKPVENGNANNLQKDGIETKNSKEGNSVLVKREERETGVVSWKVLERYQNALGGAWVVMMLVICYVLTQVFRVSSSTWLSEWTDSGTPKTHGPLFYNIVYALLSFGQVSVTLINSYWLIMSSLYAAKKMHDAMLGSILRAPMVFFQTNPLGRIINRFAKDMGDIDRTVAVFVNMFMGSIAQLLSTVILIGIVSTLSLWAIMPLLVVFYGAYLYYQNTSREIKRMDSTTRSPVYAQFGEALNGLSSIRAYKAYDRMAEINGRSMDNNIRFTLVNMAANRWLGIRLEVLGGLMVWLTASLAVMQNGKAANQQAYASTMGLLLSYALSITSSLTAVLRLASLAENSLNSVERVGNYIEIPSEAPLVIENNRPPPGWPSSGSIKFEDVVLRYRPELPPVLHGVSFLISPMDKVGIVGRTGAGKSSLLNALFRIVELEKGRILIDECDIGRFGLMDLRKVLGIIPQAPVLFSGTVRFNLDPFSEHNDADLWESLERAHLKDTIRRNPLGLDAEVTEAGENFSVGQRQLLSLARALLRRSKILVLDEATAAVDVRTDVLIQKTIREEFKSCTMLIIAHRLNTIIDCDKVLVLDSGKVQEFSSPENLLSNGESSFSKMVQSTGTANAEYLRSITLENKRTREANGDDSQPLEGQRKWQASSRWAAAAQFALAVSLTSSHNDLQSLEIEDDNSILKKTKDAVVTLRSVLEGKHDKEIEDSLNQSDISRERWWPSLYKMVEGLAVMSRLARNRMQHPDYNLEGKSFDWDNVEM
UniProt Q42093: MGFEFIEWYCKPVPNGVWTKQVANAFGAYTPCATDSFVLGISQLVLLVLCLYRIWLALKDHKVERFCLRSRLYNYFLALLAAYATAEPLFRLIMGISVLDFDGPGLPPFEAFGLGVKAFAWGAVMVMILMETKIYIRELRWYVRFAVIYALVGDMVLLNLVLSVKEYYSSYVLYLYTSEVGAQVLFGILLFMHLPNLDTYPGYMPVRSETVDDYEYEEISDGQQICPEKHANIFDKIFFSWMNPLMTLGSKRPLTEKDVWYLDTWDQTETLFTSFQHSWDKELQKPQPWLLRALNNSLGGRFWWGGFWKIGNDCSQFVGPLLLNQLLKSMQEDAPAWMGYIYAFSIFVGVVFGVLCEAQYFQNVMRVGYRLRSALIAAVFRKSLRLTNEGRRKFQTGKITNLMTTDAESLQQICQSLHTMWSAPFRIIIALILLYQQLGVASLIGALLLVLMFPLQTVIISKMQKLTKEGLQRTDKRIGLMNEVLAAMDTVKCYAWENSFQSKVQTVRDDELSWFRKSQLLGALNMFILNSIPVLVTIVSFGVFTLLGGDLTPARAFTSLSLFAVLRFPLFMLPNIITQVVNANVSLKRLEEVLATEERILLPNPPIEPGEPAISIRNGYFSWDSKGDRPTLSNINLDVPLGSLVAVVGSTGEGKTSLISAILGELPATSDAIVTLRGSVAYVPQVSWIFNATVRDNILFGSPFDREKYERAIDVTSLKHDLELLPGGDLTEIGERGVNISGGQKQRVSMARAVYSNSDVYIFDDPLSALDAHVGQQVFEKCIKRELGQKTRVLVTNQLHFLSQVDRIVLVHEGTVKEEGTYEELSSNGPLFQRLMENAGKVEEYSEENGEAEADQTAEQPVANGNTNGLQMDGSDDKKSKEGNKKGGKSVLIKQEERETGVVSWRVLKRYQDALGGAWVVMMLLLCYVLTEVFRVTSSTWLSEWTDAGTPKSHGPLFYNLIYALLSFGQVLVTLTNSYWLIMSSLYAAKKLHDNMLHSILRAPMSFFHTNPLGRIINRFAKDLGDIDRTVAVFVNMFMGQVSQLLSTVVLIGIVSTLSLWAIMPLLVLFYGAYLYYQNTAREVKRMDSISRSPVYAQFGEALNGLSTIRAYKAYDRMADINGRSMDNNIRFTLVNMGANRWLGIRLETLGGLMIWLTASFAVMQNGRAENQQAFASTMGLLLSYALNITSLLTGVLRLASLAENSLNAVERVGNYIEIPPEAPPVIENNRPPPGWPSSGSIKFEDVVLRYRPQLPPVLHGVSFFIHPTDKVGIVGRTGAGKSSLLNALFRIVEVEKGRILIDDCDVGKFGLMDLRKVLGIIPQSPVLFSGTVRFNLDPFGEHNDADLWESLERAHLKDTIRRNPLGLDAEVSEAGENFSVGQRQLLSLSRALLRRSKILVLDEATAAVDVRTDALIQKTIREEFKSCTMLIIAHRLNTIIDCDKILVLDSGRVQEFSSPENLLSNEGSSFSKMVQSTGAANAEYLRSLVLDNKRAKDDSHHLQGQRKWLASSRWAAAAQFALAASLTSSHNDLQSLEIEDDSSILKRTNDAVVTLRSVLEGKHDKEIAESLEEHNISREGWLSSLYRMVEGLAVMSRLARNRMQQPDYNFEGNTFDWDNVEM

Row | Molecule | inhibition of absorption of PC2—As complex into the yeast vesicle (AtABCC1) | inhibition of absorption of PC2—As complex into the yeast vesicle (AtABCC2) | growth of the atabcc1 atabcc2 knock-out line compared with the wild type [1]
1 | NH4Cl | not inhibited | not inhibited | 
2 | C[As](=O)(O)O |  |  | dramatically inhibited

Source: patent publication US20130212738A1, “COMPOSITION FOR PHYTOCHELATIN TRANSPORT” (POSTECH ACADEMY-INDUSTRY FOUNDATION, priority 2010, published 2013)
